Laboratory results as given in ChEMBL document CHEMBL1154688, “Selective Kv1.5 blockers: development of (R)-1-(methylsulfonylamino)-3-[2-(4-methoxyphenyl)ethyl]-4-(4-methoxyphenyl)-2-imidazolidinone (KVI-020/WYE-160020) as a potential treatment for atrial arrhythmia” (J Med Chem, 2009).

Organism: Homo sapiens
Experiment: Protein binding in human plasma by equilibrium dialysis
Settings: read-out: PPB (converted)

fraction unbound: 0.06
SMILES: COc1ccc(CCN2C(=O)N(NS(C)(=O)=O)C[C@H]2c2ccc(OC)cc2)cc1
